# In ChEMBL document CHEMBL1153304, “2,4-Diaminopyridine delta-opioid receptor agonists and their associated hERG pharmacology” (Bioorg Med Chem Lett, 2009):
# Assays:
# [1] = Selectivity for human recombinant DOR over kappa opioid receptor
# [2] = Selectivity for human recombinant DOR over mu opioid receptor
Structure (SMILES),fold change (FC) [1],fold change (FC) [2]
CC(=O)N(c1ccccc1)C1CCN(c2cc(N)ccn2)CC1,50,50
COc1ccc(C(=O)N(c2cc(C)ccn2)C2CCN(c3cc(N)ccn3)CC2)cc1,50,50
COc1cccc(C(=O)N(c2ccccn2)C2CCN(c3cc(N)ccn3)CC2)c1,50,50
Nc1ccnc(N2CCC(N(C(=O)C3CCCCC3)c3ccccn3)CC2)c1,50,50
